Experiment [1] relates to Human CD79 mutation-positive diffuse large B-cell lymphoma cell line. The experiment can be described thus: Combination of Compound A and each anticancer agent, cell viability (Cell Counting Kit-8). To be noted: combined treatment with Compound A (3, 10, 30 or 100 nmol/L); CD79 mutation-positive DLBCL; 6 days. For orientation: Formazan colour is commonly taken as a measure of viable cells.

Experiment [2] has as its system Human mantle cell lymphoma cell line. The description is as above. The note with it: combined treatment with Compound A (3, 10, 30 or 100 nmol/L), 6 days.

Here are results for four compounds from patent US20250381181A1, “CANCER TREATMENT AGENT INCLUDING MALT1 INHIBITING DRUG AS ACTIVE INGREDIENT” (ONO PHARMACEUTICAL CO., LTD., priority 2022, published 2025).

`CC[C@]1(O)C[C@H]2CN(CCc3c([nH]c4ccccc34)[C@@](C(=O)OC)(c3cc4c(cc3OC)N(C=O)[C@H]3[C@@](O)(C(=O)OC)[C@H](OC(C)=O)[C@]5(CC)C=CCN6CC[C@]43[C@@H]65)C2)C1` [Vincristine]: the “Combination index (CI) value, median” value in experiment [1] was 0.961; in experiment [2] it was 0.860. Consider `CC(C)C[C@H](NC(=O)[C@H](Cc1ccccc1)NC(=O)c1cnccn1)B(O)O` [Bortezomib], for which the “Combination index (CI) value, median” value in experiment [2] is on record as 0.989. Consider `Cn1c(CCCC(=O)O)nc2cc(N(CCCl)CCCl)ccc21` [Bendamustine], for which the “Combination index (CI) value, median” value in experiment [1] is recorded as 0.796; in experiment [2], 0.793. As for `O=P1(N(CCCl)CCCl)NCCCO1` (stereo not drawn) [Cyclophosphamide], the “Combination index (CI) value, median” value in experiment [2] was 0.931.
